Drawing on paper PMC7821949 (Biomolecules, 2020), this text covers IC50 for 3 compounds.

Protein sequences, listed by entry. Tags and fused reporters are not part of them. Residues count along the entry.
UniProt P02710, 25-461 limits assumed: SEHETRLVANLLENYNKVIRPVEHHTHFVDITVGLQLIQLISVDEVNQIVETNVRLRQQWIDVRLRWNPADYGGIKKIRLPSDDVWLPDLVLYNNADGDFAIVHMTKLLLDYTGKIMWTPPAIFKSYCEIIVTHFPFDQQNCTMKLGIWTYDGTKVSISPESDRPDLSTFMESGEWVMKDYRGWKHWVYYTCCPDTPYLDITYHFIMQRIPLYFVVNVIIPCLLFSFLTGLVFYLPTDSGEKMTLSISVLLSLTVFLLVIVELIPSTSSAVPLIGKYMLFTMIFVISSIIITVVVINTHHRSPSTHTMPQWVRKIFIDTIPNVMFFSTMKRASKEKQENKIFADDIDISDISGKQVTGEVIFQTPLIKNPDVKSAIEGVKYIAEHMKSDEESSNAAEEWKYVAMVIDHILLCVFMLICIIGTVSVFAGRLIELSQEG
UniProt P02712, 25-493 partner limits assumed: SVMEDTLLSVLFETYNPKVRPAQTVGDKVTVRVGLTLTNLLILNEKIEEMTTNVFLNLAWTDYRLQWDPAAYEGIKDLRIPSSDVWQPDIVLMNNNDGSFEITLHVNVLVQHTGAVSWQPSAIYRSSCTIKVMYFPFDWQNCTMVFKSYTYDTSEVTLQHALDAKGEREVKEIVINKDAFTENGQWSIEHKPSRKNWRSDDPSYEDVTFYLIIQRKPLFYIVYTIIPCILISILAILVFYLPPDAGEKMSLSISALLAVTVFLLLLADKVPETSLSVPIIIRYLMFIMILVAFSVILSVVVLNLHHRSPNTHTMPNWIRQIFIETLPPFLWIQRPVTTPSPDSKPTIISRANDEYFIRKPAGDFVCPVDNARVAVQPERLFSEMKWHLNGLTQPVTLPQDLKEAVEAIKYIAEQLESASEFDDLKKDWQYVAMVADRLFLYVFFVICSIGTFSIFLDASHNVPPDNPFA
UniProt P02714, 18-506 limits assumed: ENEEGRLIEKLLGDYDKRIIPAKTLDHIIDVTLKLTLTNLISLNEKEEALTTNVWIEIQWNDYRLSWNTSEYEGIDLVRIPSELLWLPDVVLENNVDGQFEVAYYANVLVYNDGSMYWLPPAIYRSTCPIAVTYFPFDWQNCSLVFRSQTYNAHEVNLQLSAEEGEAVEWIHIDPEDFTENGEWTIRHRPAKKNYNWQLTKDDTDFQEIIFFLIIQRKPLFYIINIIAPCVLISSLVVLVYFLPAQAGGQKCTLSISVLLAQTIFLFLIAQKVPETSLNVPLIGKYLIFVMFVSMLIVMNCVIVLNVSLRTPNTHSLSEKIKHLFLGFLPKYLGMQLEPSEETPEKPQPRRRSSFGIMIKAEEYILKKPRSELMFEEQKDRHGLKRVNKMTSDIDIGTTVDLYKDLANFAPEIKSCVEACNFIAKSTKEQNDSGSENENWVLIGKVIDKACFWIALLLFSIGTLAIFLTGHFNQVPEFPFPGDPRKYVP
UniProt P02718, 22-522 limits assumed: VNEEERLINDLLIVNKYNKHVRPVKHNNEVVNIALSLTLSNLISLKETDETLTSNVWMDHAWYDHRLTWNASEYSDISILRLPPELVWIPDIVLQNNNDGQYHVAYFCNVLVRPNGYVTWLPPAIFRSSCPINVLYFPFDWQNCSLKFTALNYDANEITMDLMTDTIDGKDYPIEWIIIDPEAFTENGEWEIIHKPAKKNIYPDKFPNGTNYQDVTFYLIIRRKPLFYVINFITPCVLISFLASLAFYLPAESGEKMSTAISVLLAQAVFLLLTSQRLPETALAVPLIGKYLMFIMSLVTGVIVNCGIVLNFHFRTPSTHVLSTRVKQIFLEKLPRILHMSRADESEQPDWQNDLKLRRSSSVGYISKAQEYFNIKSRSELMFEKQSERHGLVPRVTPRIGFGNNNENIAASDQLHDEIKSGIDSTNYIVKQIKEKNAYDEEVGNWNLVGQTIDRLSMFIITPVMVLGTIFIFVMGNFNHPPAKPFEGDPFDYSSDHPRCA

The test concerns the target muscle-type nAChR from T. californica ray electric organ (Tetronarce californica, UniProt P02710+P02712+P02714+P02718). Description: Competitive radioligand assay with 125I-α-Bgt on Torpedo membranes. Conditions: read-out: IC50, inhibition of 125I-α-Bgt binding to T. californica nAChR; Torpedo electric organ membranes (0.6 nM α-Bgt binding sites); 90 min with peptide, then 5 min with 0.5 nM 125I-α-Bgt; 20 mM Tris-HCl pH 8.0, 1 mg/mL BSA; one-site fit; mean ± SEM, two measurements per concentration in two independent experiments.
A word on the IC50: it is the midpoint of a concentration-inhibition curve. For `CSCC[C@H](NC(=O)[C@H](CCCNC(=N)N)NC(=O)[C@@H](NC(=O)[C@@H]1CCCN1C(=O)[C@@H](NC(=O)[C@H](Cc1ccc(O)cc1)NC(=O)[C@H](Cc1ccc(O)cc1)NC(=O)[C@@H](NC(=O)[C@H](CCCNC(=N)N)NC(=O)[C@@H](NC(=O)[C@@H](N)[C@@H](C)O)[C@@H](C)O)[C@@H](C)O)[C@@H](C)O)[C@@H](C)O)C(=O)N[C@@H](CCCCN)C(=O)N[C@H](C(=O)N[C@@H](CO)C(=O)N[C@@H](CCCCN)C(=O)O)C(C)C`, the IC50 amounted to 7.9 µM.

`CSCC[C@H](NC(=O)[C@H](CCCNC(=N)N)NC(=O)[C@@H](NC(=O)[C@@H]1CCCN1C(=O)[C@@H](NC(=O)[C@H](Cc1ccc(O)cc1)NC(=O)[C@H](Cc1ccc(O)cc1)NC(=O)[C@@H](NC(=O)[C@H](CCCNC(=N)N)NC(=O)[C@@H](NC(=O)[C@@H](NC(=O)[C@@H](N)CS)[C@@H](C)O)[C@@H](C)O)[C@@H](C)O)[C@@H](C)O)[C@@H](C)O)C(=O)N[C@@H](CCCCN)C(=O)N[C@H](C(=O)N[C@@H](CO)C(=O)N[C@@H](CCCCN)C(=O)N[C@@H](CS)C(=O)O)C(C)C`: the IC50 was 1.1 µM.

In the case of `CSCC[C@@H]1NC(=O)[C@H](CCCNC(=N)N)NC(=O)[C@H]([C@@H](C)O)NC(=O)[C@@H]2CCCN2C(=O)[C@H]([C@@H](C)O)NC(=O)[C@H](Cc2ccc(O)cc2)NC(=O)[C@H](Cc2ccc(O)cc2)NC(=O)[C@H]([C@@H](C)O)NC(=O)[C@H](CCCNC(=N)N)NC(=O)[C@H]([C@@H](C)O)NC(=O)[C@H]([C@@H](C)O)NC(=O)[C@@H](N)CSSC[C@@H](C(=O)O)NC(=O)[C@H](CCCCN)NC(=O)[C@H](CO)NC(=O)[C@H](C(C)C)NC(=O)[C@H](CCCCN)NC1=O`, the IC50 came to 6 µM.
